Literature values in patent publication EP0632082B1, “Preparation of activated carbamates of poly(alkylene glycol) and their use” ("HEYLECINA", Société Anonyme, priority 1993, dated 1995).

How the values were obtained:
[1] = aqueous solutions at physiological pH
[2] = i.v. administered, compared with rIL-2
[3] = in vivo

For “PEG-rIL-2: rIL-2 with chemical grafting of 2 to 3 poly(ethylene glycol) (PEG) chains (7 kDa each)”, the solubility [1] is given as “enhanced solubility”, the antitumoral activity [2] is given as “significantly higher antitumoral activity than rIL-2” and the immunogenicity [3] is given as “reduced immunogenicity”.
